Test system: chronic hepatitis C (hepatic inflammation)
Test: Study 1: liver histology, Knodell HAI (I+II+III) score
Type: in vivo
Conditions: patients with paired biopsies
Excerpt: This was a prospective, multicenter, randomized, double-blind, parallel-group. The study compared treatment with INTRON® A plus ribavirin to treatment with INTRON® A plus placebo for 24 or 48 weeks in antiviral treatment naive patients with compensated chronic hepatitis C who had no prior treatment with any interferon including but not limited to alpha interferon (INTRON® A, Roferon®-A, consensus interferon, or Wellferon®) therapy and who also had no prior treatment with ribavirin. […] Eligible patients had chronic hepatitis C confirmed by positive serum HCV-RNA, liver biopsy, and laboratory tests. Patients were randomized to treatment with either INTRON® A plus ribavirin or INTRON® A plus placebo. […] Treatment group assignments were made in equal ratios by a Central Randomization Center. The randomization procedure was designed to attempt to balance the treatment groups, within and across sites, with respect to presence or absence of cirrhosis in the pretreatment liver biopsy, serum HCV-RNA/qPCR level, and HCV genotype. […] Evaluation of the biopsies was performed by a single pathologist using the Knodell Histology Activity Score. The central pathologist was blinded with respect to patient identification, treatment group, and the time the biopsy was obtained relative to treatment(Pre- or Posttreatment).

INTRON A + Placebo: INTRON A (interferon alpha-2b, recombinant) 3 million IU SC TIW plus placebo matching ribavirin; interferon monotherapy comparator
Improved Biopsy: Knodell HAI (I+II+III) decrease of 2 or more, 24 weeks following EOT (24 weeks treatment): 77 (44%)
Improved Biopsy: Knodell HAI (I+II+III) decrease of 2 or more, 24 weeks following EOT (48 weeks treatment): 65 (41%)

Source: patent US6472373B1, “Combination therapy for eradicating detectable HCV-RNA in antiviral treatment naive patients having chronic hepatitis C infection” (priority 1997, dated 2002)
